Results reported in patent US5204355A, “15-nitro-2β, 3β-dihydro- and 15-nitro-2β,3β,6,7-tetrahydrotabersonine derivatives, pharmaceutical compositions containing them and process for preparing same” (Richter Gedeon Vegyeszeti Gyar RT., priority 1990, dated 1993).

System: TET-induced increase in the brain water content
Assay: TET-induced cerebral edema in rats (brain water content, protective effect)
Type: in vivo, inbred male Hannover Wistar rats
From the text: The inhibitory effect on the cerebral edema of the compounds of formula (I) was studied by using the method of P. Linnee et al. "L'oedeme cerebral induit chez 1e rat par le triethyletain. Interet et limites comme methode d'etude de antioedemateux cerebraux", Ann. Pharmaceutiques francaises, 42, 431 (1984)) as described hereinafter in detail.
Inbred male Hannover Wistar rats weighing 180 to 200 g were used in these examinations. Before starting and during the treatment the animals were kept on normal laboratory diet and received tap water ad libitum.
The cerebral edema was induced by the daily administration of 2.5 mg/kg of triethyl-tin chloride (abbreviated hereinafter as TET) for 5 days. […]
The animals were decapitated on the 5th day of the treatment at 2 hours after the last treatment (with the test compound). The whole brain was rapidly removed, washed with cold 0.9 % saline, the moisture was removed by a filter paper, the brains were placed on aluminum foils previously weighed and the wet weights of the brains (together with the aluminum foil of known weight) were determined with an accuracy of one tenth mg on an electric balance (Precisa 80/A, PAG Oerlikon AG, Zurich, Switzerland).
Subsequently the brains were dried at 90° C. for 92 hours, then the gross dry weight (dry weight of the brain together with the weight of the aluminum foil) was again measured. […]

Compound: NC(=O)CN1CCCC1=O [piracetam, 2-oxo-1-pyrrolidineacetic acid amide]
- Protective effect % (Experiment 5, 100 μmol/kg oral, 5 days TET 2.5 mg/kg): 6.7%
- protective action against TET-induced edema (in words) (result in words): did not produce any practically useful protective action
